SMILES strings stand for the structures. pEC50: −log10 of the molar value.

By UniProt entry, the sequences of proteins in these tests, tags left out. Where a name states a change or a piece, a line headed by the entry shows the natural chain unless it says otherwise.
UniProt P23385: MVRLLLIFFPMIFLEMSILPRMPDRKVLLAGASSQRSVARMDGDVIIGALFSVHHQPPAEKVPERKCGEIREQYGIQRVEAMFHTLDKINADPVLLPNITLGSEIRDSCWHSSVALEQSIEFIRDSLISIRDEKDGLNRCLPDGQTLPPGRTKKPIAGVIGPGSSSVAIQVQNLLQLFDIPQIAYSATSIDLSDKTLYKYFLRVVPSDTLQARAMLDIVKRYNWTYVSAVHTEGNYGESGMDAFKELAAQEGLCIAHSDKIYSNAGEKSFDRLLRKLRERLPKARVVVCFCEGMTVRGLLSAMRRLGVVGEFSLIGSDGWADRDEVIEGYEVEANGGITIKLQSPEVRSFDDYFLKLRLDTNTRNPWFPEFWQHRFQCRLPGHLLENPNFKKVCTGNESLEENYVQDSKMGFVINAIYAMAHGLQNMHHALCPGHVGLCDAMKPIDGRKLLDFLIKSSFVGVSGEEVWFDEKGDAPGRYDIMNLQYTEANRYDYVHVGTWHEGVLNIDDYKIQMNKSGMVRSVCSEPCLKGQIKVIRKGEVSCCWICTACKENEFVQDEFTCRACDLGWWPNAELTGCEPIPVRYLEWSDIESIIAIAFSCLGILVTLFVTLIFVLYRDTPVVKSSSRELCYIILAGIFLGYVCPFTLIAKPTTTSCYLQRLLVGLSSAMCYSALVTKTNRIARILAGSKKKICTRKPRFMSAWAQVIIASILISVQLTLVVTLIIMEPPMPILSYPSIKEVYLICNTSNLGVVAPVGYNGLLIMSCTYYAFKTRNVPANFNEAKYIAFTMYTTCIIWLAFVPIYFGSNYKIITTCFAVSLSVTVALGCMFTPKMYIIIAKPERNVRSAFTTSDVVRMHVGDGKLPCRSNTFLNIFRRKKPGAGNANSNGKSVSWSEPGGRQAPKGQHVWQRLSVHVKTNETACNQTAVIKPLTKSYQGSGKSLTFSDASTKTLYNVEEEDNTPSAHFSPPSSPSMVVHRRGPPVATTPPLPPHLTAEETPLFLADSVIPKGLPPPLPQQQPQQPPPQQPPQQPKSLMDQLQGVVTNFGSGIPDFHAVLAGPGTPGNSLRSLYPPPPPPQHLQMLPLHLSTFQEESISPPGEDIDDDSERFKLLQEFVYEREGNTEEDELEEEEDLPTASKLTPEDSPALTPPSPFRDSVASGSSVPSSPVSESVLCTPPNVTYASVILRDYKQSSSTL
UniProt Q14833: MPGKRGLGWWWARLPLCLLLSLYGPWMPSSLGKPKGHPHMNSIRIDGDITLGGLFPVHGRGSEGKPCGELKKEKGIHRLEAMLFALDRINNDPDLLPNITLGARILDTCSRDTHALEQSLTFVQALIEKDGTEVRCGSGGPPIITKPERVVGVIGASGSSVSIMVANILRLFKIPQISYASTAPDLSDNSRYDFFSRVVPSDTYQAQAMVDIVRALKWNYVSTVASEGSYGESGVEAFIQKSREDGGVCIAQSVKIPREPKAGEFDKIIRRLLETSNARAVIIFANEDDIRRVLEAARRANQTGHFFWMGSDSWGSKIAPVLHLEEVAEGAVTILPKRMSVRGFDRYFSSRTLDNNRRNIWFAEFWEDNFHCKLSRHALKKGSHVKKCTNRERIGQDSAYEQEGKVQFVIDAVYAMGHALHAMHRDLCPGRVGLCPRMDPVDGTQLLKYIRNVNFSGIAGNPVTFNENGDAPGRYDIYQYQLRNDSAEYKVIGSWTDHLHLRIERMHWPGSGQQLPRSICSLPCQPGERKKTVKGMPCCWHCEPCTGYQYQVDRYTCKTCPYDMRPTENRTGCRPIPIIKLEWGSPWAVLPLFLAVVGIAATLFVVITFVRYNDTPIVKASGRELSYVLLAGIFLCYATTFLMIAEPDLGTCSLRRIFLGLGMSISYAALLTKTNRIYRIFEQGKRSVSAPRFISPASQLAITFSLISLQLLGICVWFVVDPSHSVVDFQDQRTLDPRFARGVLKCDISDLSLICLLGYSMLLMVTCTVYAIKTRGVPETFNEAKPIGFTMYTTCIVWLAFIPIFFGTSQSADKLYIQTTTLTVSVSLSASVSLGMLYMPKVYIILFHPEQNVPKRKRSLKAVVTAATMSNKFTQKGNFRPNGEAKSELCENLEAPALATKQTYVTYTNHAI
UniProt P31421: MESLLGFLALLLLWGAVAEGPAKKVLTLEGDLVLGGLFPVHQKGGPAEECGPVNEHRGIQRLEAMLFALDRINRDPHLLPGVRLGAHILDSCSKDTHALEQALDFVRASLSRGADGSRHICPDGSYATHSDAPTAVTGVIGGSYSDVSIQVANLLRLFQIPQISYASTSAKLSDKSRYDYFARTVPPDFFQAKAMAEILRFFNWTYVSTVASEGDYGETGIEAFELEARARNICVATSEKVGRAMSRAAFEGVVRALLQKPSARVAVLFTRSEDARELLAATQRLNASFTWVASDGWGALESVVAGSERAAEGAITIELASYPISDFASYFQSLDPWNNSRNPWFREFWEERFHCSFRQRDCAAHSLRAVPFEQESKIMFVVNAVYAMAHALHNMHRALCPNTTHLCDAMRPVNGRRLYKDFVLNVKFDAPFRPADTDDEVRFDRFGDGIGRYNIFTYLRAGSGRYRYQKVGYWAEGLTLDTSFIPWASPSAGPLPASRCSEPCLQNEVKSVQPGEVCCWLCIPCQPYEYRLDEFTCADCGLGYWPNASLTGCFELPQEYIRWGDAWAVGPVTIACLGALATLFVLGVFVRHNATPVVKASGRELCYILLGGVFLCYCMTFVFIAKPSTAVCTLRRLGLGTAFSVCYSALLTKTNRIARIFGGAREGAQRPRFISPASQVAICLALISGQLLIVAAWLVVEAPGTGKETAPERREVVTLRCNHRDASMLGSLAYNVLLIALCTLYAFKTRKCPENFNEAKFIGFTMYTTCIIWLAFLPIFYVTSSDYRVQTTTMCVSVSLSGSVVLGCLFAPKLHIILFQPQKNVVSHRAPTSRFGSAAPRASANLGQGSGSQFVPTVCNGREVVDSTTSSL

In assay [1] the target is T1, Metabotropic glutamate receptor 1 (Rattus norvegicus, UniProt P23385). In words: Concentration for half maximal activation of metabotropic glutamate mGluR1b in rat.
Assay [2] deals with Metabotropic glutamate receptor 4 (Homo sapiens, UniProt Q14833). Description: Concentration for half maximal activation of metabotropic glutamate mGluR4a in human.
Assay [3] has as its target T1, Metabotropic glutamate receptor 1. Description: Concentration for half maximal activation of metabotropic glutamate mGluR1c in rat.
Assay [4] deals with Metabotropic glutamate receptor 2 (Rattus norvegicus, UniProt P31421). Description: Concentration for half maximal activation of metabotropic glutamate mGluR2 in rat.

On to `N[C@@]1(C(=O)O)CC[C@@H](C(=O)O)C1`, for which the pEC50 (usually −log10 of the EC50, conventionally taken in molar units) was 3.98 in assay [1], 3.78 in assay [2] and 3.89 in assay [3].

As for `N[C@H](C(=O)O)c1cc(=O)[nH]o1` [IBOTENIC ACID], the pEC50 in assay [4] was 4.46.
